Earlier results on one substance are cited in article PMC8087782, “Developing Nanodisc-ID for label-free characterizations of membrane proteins” (Communications Biology, 2021).

As usually defined, the Kd is a measure of binding affinity in units of concentration.

Series [1] has as its target MalFGK2 (inward-facing) (Escherichia coli) (UniProt P02916). The note with it: cited from earlier work.
Series [2] addresses MalFGK2 (outward-facing) (Escherichia coli) (UniProt P02916). The following applies: cited from earlier work.

On to MalE (from UniProt P0AEX9), for which the Kd is 80 nM in series [1] and 5000 nM in series [2].
